## Binding of CDR-mutated scFvs to a peptide of the spike HR2 region

Antigen: PDVDLGDISGINAS, a 14-residue peptide of the SARS-CoV-2 spike HR2 region.

Ab-95 is the parent antibody, in scFv form: VH, then a 15-residue (Gly4Ser)3 linker, then VL. The heavy chain is unchanged in all variants.
VH: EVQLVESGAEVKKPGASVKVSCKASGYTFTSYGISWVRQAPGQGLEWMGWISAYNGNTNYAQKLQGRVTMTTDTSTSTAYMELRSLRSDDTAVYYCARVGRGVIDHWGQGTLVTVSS
VL: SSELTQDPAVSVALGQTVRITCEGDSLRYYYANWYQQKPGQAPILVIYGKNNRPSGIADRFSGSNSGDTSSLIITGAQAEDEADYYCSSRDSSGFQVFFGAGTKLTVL

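Library AAYL52 holds single substitutions and randomly drawn double and triple substitutions in the CDRs. The scFvs were displayed on barcoded MATa yeast, the peptide on MATalpha yeast. Mating (16 h, 30 °C) was followed by selection of diploids and sequencing of their barcodes. Each replicate has its own calibration line, from reference interactions of the BCL2 family. The assay was run in three technical replicates.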

The parent's light chain CDRs are EGDSLRYYYAN, GKNNRPS, SSRDSSGFQVF; each variant's own CDRs replace them letter for letter. Affinities are written as log10 Kd with Kd in nM; a lower number is a better binder. "nd" marks a missing value. The strain was present, yet no cells mated with the target were sequenced in that replicate, which points to weak or no binding. Three control strains display no target. For library AAYL52, 28% of the pairings with them gave a signal, with a median of 3.91 and one signal in twenty below 2.90, so weak values seen in few replicates may be background. The control count says in how many pairings with the empty strains this scFv gave a signal, with their mean in brackets. In this assay the parent's reference entry averaged 2.31; its copy inside this library read 2.25.

CDR-L1,CDR-L2,CDR-L3,"log10 Kd, replicates",control signals
EGMSLRYYLAN,GKNNRPS,SSRDRSGFQVF,2.52 2.46 2.17,1/9 (3.86)
EGDSLRYYYAN,MKNNHPS,SSRDSSGFQVC,nd nd 4.25,5/9 (3.81)
EGDSWRYYYPN,GKNNRPS,PSRDSSGFQVF,3.70 4.37 nd,4/9 (3.99)
KGDSLRYYYAN,GKNNIPS,SSRDSSGEQVF,2.54 2.57 2.39,3/9 (4.56)
EFDSIRYYYAN,GKNNRPS,SSRDSSGFQVF,2.77 3.20 nd,2/9 (4.46)
EGDSMRYYYAN,GKNNRAS,SSRDSRGFQVF,2.99 3.41 2.70,2/9 (3.14)
EGISLRYYYAN,GFNNRIS,SSRDSSGFQVF,nd nd nd,4/9 (4.75)
EGDSLRYYYAN,GKNIRPS,SARDSRGFQVF,2.74 2.40 2.03,5/9 (3.23)
EGDSLRYYYAN,GKNNRPS,HSRYSSGFAVF,3.33 2.61 3.62,3/9 (4.53)
NGDELRYYYMN,GKNNRPS,SSRDSSGFQVF,nd nd nd,1/9 (4.46)
EGDSLRYYYAN,NKNNRVS,SSRDSSGNQVF,3.22 3.83 4.11,0/9
EGDMLRYPYAN,VKNNRPS,SSRDSSGFQVF,nd 4.64 4.40,0/9
EWDSLHYYYAN,GKNNRPS,SSRDSSGFQVF,nd 3.15 2.29,3/9 (3.70)
EGDSLRYYYAN,GKVNRPS,SSKDSSGFQSF,nd nd nd,3/9 (3.84)
EGDSLRYYYAN,GKNNRKS,SSDDSSGFQVV,4.57 nd nd,2/9 (3.57)
EGDSLRYYYAN,ATNNRPS,SSRDSSGFQVG,3.76 nd nd,1/9 (4.43)
EGDSLRYYYAN,GKNNRPS,SSRDHSGQWVF,2.33 2.21 2.19,3/9 (3.49)
EGDSLRYYQAN,GKNNRDS,SSRDSEGFQVF,3.18 3.02 3.81,1/9 (3.78)
EVDSLRYYYAN,EKNNRPS,SSRDSSGFQEF,4.17 nd nd,6/9 (3.67)
EGDSKSYYYAN,GKNNRPS,SSHDSSGFQVF,3.25 3.52 2.95,3/9 (3.40)
EGDSLRYYTAN,GKNNRPS,SSRDSSGFQVE,2.51 nd nd,1/9 (3.73)
EGDSLRYYYAN,GKWNRPS,SSRQSSGVQVF,3.05 nd nd,1/9 (4.02)
EGDSLRYYYAN,GKNNRPS,CVGDSSGFQVF,4.66 5.45 nd,4/9 (4.28)
EGDSLRYFYAN,GKNNRPS,SSRYSSGFQVF,3.61 4.86 2.05,3/9 (3.85)
EGDSLRTYYAN,GKNNRPS,STRDSSGFQVN,3.14 2.42 nd,1/9 (4.26)
EGDSLRYYYAN,GKNNRTS,SERPSSGFQVF,nd nd nd,0/9
EGKSLTYYYAN,GKNNRPS,SSRDSSGFQWF,2.68 2.79 2.62,5/9 (4.70)
EGDILRYYGAN,GKNNRPS,SSKDSSGFQVF,2.79 2.51 2.73,1/9 (4.18)
EDDSLRYYYAN,GINNRPP,SSRDSSGFQVF,3.55 nd nd,2/9 (3.30)
EGDSLRYYYAN,GHNNEPS,SSKDSSGFQVF,4.76 4.92 nd,3/9 (4.84)
EGDSLRYYDAN,QKNHRPS,SSRDSSGFQVF,1.71 1.48 1.15,3/9 (3.95)
EGDSLRYYYTN,GKNNRPN,SSRDSSGFEVF,3.28 3.18 2.68,1/9 (3.81)
ESHSLRYYYAN,GKNNVPS,SSRDSSGFQVF,nd 3.39 nd,0/9
QGDSLRYYYAN,GKNNLPS,SSPDSSGFQVF,3.94 nd nd,2/9 (3.86)
EGDSLRYYYAI,GKNNRPS,SSRDSSFEQVF,4.42 nd nd,6/9 (4.05)
EGDSLRYYYDN,GKNNRPS,SSRYSSGFQVF,nd 4.18 4.25,4/9 (3.80)

Repeated from above, the 3 best binders with a signal in all replicates:

CDR-L1,CDR-L2,CDR-L3,"log10 Kd, replicates",control signals
EGDSLRYYDAN,QKNHRPS,SSRDSSGFQVF,1.71 1.48 1.15,3/9 (3.95)
EGDSLRYYYAN,GKNNRPS,SSRDHSGQWVF,2.33 2.21 2.19,3/9 (3.49)
EGMSLRYYLAN,GKNNRPS,SSRDRSGFQVF,2.52 2.46 2.17,1/9 (3.86)

Values reported by Engelhart et al. 2022, doi:10.1038/s41597-022-01779-4 (FLAb copy).